In patent US7432257B2, “Piperdinyl-phenoxazine and phenothiazine derivatives as δ-opioid modulators” (dated 2008):

Target: delta opioid receptor (NG108-15 cell membranes) (Mus musculus, UniProt P32300)
Assay: [35S]GTPγS Binding Assay in NG108-15 Cell Membranes (Delta Opioid)
Conditions: relative efficacy

Row | SMILES | delta GTPγS Rel Eff
1 | N#Cc1ccc2c(c1)Oc1ccccc1N2C1CCNCC1 | 0.45
2 | NC(=O)c1ccc2c(c1)Oc1ccccc1N2C1CCNCC1 | 0.81
